This assay concerns the target Voltage-gated inwardly rectifying potassium channel KCNH2 (Homo sapiens, UniProt Q12809). The experiment in a line: Inhibition of Ikr current in isolated guinea pig myocytes during a 0.5 s voltage clamp step from -50 to -10 mV. Type of assay: functional, cell-based, Cavia porcellus. The settings on record: target entry is the homologue from another species.

The chains behind the UniProt entries cited, without tags or fusion partners. Where a name states a change or a piece, a line headed by the entry shows the natural chain unless it says otherwise.
UniProt Q12809: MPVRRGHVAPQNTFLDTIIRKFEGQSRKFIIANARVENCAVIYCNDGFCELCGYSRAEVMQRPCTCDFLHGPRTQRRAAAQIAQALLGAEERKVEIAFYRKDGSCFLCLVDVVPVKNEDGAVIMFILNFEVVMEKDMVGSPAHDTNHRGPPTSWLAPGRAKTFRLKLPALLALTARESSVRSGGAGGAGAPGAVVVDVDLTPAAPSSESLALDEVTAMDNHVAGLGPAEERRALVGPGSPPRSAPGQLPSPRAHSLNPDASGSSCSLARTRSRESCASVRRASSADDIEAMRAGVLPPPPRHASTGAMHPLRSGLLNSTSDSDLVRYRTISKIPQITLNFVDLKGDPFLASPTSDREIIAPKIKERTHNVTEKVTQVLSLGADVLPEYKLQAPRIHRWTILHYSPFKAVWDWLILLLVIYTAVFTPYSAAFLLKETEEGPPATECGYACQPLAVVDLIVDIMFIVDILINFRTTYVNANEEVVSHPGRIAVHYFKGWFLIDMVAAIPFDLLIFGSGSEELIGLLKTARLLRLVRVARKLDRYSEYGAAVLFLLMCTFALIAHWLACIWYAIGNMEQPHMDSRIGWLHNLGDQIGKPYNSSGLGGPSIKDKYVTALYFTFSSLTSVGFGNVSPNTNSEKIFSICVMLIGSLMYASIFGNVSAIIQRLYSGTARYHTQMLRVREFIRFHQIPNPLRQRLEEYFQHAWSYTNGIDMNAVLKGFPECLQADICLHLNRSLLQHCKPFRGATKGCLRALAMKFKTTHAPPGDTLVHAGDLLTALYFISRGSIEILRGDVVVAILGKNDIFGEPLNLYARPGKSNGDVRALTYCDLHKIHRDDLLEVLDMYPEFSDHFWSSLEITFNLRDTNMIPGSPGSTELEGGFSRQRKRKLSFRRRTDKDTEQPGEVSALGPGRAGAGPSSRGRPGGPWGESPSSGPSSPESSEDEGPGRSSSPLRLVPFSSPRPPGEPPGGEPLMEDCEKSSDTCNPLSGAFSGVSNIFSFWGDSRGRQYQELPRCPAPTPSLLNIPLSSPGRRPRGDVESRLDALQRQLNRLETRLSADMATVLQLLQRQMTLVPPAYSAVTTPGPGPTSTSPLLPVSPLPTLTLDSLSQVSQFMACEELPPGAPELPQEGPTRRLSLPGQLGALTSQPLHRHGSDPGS

Molecules are shown by their SMILES.

`Cc1cccc(NC(=O)N[C@@H]2N=C(c3ccccc3)c3ccccc3N(C)C2=O)c1` [L-365260] came in with an IC50 of 5 µM.
Regarding `O=C(Cc1ccc(C(F)(F)F)cc1C(F)(F)F)N[C@@H]1N=C(c2ccccc2)c2ccccc2N(CC(F)(F)F)C1=O` [L-768673], 6 µM corresponded to half-maximal inhibition (IC50).
For `CN1C(=O)[C@H](NC(=O)C(N)Cc2ccccc2)N=C(c2ccccc2)c2ccccc21` (stereo not given in full), the IC50 stood at 8.8 µM.
In the case of `O=C(Cc1ccc(Cl)cc1Cl)N[C@@H]1N=C(c2ccccc2)c2ccccc2N(CC(F)(F)F)C1=O`, the IC50 was 2.4 µM.
`Cc1cccc(NC(=O)N[C@H]2N=C(c3ccccc3)c3ccccc3N(C)C2=O)c1` yielded a half-maximal inhibitory concentration (IC50) of 10 µM.

The record behind these values is ChEMBL document CHEMBL1130298, “Class III antiarrhythmic activity in vivo by selective blockade of the slowly activating cardiac delayed rectifier potassium current IKs by (R)-2-(2,4-trifluoromethyl)-N-[2-oxo-5-phenyl-1-(2,2,2-trifluoroethyl)- 2, 3-dihydro-1H-benzo[e][1,4]diazepin-3-yl]acetamide” (J Med Chem, 1997).
